{
  "source": "paper PMC4013589",
  "about": "“LXXLL Peptide Converts Transportan 10 to a Potent Inducer of Apoptosis in Breast Cancer Cells” (International Journal of Molecular Sciences, 2014)",
  "tested_on": "human primary fibroblasts (FB188 cells)",
  "assay": "WST-1 viability assay, primary fibroblasts (FB188)",
  "assay_type": "cell-based",
  "conditions": "WST-1, 5 μM peptide, treated every 24 h, day 3, 1% FBS; triplicate",
  "experimental": "Figure 1. Effects of SRC-1 bioportides on cancer and primary fibroblast cells. (A) Viability of MCF-7 cells; (B) Viability of FB188 cells. Cells were seeded in 96-well plates at a density of 3000 or 2000 cells/well, respectively, and treated after every 24 h with the indicated peptide concentrations. Viability of both cell types was monitored at day 3 via the WST-1 assay. The values shown represent the mean values of one experiment, carried out in triplicate (mean ± SD). In total, three independent experiments were performed.\nCytotoxicity of peptides was measured via the WST-1 conversion assay (Roche, Mannheim, Germany). FB188 and MCF-7 cells were seeded in 96-well plates at a density of 2000 or 3000 cells/well, respectively, and allowed to adhere overnight. Subsequently the cells were pre-incubated for two days in medium containing 1% FBS without supplementary insulin and exposed to the indicated concentrations of the respective peptide for up to 3 days. WST-1 conversion was determined by colorimetric analysis at 450 nm. Briefly, WST-1 reagent (1/10 of sample volume) was added directly to the growth medium and incubated at 37 °C for 4 h. The absorbance was determined using a microplate reader (Molecular Devices, Sunnyvale, CA, USA) at 450 nm. Untreated cells were designated a cell survival value of 100%.",
  "data": [
    {"substance": "TP10 [reference compound]", "values": [
      {"measurement": "Effect on viability of human primary fibroblasts", "value": "did not have any effect"}
    ]}
  ]
}
